# Results: ChEMBL document CHEMBL1133846, “The discovery of anthranilic acid-based MMP inhibitors. Part 3: incorporation of basic amines” (Bioorg Med Chem Lett, 2001)
# Protein sequences, listed by entry. Tags and fused reporters are not part of them. Lines headed by an entry give the natural chain unless they say otherwise; changes in a name come on top.
# UniProt P14780: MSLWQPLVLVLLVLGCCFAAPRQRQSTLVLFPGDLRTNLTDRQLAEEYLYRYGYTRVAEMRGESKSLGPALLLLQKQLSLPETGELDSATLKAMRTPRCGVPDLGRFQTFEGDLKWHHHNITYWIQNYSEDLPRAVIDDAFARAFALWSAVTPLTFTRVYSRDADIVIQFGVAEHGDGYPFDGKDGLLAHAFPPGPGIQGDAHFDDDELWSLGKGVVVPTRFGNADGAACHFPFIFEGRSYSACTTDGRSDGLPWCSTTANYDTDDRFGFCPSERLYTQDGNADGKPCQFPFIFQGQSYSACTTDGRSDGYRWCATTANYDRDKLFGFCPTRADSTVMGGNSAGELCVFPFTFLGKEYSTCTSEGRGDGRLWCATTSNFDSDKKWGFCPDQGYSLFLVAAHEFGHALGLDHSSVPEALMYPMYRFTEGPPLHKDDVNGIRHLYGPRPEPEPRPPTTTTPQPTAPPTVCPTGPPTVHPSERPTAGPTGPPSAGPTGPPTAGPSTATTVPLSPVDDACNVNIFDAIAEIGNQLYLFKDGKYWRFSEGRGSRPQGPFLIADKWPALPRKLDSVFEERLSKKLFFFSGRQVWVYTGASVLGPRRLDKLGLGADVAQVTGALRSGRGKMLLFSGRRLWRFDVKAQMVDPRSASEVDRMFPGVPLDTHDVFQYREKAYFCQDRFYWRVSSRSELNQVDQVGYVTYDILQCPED
# pIC50: −log10 of the molar value. Where “and” joins values, the source holds several entries; their conditions need not be identical. Equal entries are not always repeated.
# Key:
# Interstitial collagenase = target: T1, Interstitial collagenase (Homo sapiens, UniProt P03956); assay: In vitro inhibition of Matrix metalloprotease-1.
# T1 sequence (P03956 whole entry): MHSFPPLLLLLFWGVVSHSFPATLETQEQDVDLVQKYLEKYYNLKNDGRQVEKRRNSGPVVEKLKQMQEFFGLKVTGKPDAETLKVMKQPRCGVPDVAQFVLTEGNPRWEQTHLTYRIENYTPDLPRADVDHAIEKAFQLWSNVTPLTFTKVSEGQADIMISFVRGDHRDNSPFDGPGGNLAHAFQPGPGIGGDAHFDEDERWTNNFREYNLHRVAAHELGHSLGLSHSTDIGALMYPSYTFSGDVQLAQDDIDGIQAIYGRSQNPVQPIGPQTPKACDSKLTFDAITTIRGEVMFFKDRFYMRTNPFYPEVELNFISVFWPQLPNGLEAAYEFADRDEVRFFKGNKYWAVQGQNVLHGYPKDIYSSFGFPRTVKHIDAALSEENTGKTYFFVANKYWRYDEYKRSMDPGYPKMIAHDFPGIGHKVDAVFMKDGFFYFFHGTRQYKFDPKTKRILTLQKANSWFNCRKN
# [1] = target: Matrix metalloproteinase-9 (Homo sapiens, UniProt P14780); assay: In vitro inhibition of Matrix metalloprotease-9.
SMILES,pIC50 (Interstitial collagenase),pIC50 [1]
COc1ccc(S(=O)(=O)N(CC#CCN2CCN(C)CC2)c2c(C)cc(Br)cc2C(=O)NO)cc1,6.89,
COc1ccc(S(=O)(=O)N(Cc2cccnc2)c2c(C)cccc2C(=O)NO)cc1,,8.15 and 8.10
